Test results taken from US20160272683A1 (Novo Nordisk, published 2016).
One block for each binder: values may come before it.

How the values were obtained:
[1] = molecular target: rat calcitonin receptor (rat) (UniProt P32214); assay: SPA competition vs 125I-calcitonin, membranes with rat CTR (Assay VIII)
[2] = molecular target: T1, human amylin receptor (amylin 3(a) receptor: human calcitonin receptor with RAMP-3) (human, UniProt P30988 25-474; O60896 24-148, limits assumed); assay: SPA competition vs 125I-rat amylin, membranes with human CTR + RAMP-3 (Assay V)
T1 construct: whole, on cells; Assay V: membranes of the Amylin 3(a)/CRE-luc BHK cells on SPA beads; also called hAmylin-R
T1 sequence (looked up) 1: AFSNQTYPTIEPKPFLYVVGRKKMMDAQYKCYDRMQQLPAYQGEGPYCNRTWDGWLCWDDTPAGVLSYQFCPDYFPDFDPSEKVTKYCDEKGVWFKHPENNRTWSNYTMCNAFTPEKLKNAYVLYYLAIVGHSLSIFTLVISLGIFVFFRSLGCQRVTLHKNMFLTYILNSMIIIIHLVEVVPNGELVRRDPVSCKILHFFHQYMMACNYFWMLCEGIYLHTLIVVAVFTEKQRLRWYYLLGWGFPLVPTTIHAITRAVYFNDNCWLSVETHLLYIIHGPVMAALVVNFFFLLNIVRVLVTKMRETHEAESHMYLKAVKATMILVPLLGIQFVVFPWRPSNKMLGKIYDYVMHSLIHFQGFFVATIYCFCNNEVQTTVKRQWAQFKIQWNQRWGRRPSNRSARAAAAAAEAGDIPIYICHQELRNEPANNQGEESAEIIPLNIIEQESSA
T1 sequence (looked up) 2: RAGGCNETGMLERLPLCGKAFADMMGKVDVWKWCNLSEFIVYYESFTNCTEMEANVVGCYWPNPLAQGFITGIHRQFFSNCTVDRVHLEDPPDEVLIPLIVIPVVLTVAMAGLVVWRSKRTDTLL
Procedure: The binding assay was performed using scintillation proximity assay (SPA) beads (RPNQ0001) from PerkinElmer and cell membranes from the Amylin 3(a)/CRE-luc cells (as described in Assay (II)) were used. Membranes were prepared in the following way; the cells were rinsed with PBS and incubated with Versene for approximately 5 min before harvesting. The cells were flushed with PBS and the cell-suspension was centrifuged for 5 min at 1000 rpm. […] The resulting pellet was resuspended in buffer 2 and protein concentration was tested (BCA protein Assay, Pierce). The homogenate was kept cold during the whole procedure. The membranes were kept at −80° C. until use. The assay was performed in a 384 well Optiplate (PerkinElmer) in a total volume of 40 ul. Membranes were mixed with SPA beads. Final concentration of membranes 35 ng/μL final and SPA beads was 0.05 mg/well. Test-compounds were dissolved in DMSO and further diluted in assay buffer (50 mM Hepes, pH 7.4, 1 mM CaCl2, 5 mM MgCl2, 0.1% OA and 0.02% Tween20). […] Samples were analyzed on TopCounter™ (Packard). The IC₅₀ was calculated using (one site binding competition analysis) GraphPad Prism5 as a measure of receptor affinity.

IC50 [1]: 0.027 nM
IC50 [2]: 0.202 nM
B1: [des1, 27K(C20 diacid-gGlu), 30S, 31G]mimylin (peptide)
peptide: ASELSTAALGRLSAELHELATLPRTKTGSGSP
modifications: C20 diacid-gGlu side chain on the epsilon-amino group of Lys 27 (numbering of SEQ ID NO: 1); C-terminal amide
notes: mimylin derivative; des1 = residue 1 deleted; also called Ex. #55; 55

IC50 [1]: 0.027 nM
B2: [N-terminal(C20 diacid-gGlu-2xOEG), des1, 4G, 9V, 15Q, 21Q, 23Y, 30S, 31G, 32T, 33Y]mimylin (peptide)
peptide: ASGLSTAVLGRLSQELHELQTYPRTETGSGTY
modifications: C20 diacid-gGlu-2xOEG side chain on the alpha-amino group of the N-terminal residue; C-terminal amide
